The values that follow are results of earlier work, collected in paper PMC3426300.

Protein sequences, listed by entry. Tags and fused reporters are not part of them. Residues count along the entry.
UniProt Q00987, 25-109: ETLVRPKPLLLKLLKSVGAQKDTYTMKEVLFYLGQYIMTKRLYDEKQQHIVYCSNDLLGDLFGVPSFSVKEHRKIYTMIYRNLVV

As usually defined, the Kd is the free concentration of one partner at which half of the binding sites on the other are occupied at equilibrium, for simple one-to-one binding.

The target in the series is MDM2 25-109 (Homo sapiens) (UniProt Q00987).

In the case of DPMI-γ, the Kd is 53 nM.
